# Results taken from patent US20210139573A1 (Regeneron, published 2021).
# Chains of the proteins cited; added tags and fusions are not shown. Residues count along the entry.
# UniProt P01031, 19-1676 limits assumed: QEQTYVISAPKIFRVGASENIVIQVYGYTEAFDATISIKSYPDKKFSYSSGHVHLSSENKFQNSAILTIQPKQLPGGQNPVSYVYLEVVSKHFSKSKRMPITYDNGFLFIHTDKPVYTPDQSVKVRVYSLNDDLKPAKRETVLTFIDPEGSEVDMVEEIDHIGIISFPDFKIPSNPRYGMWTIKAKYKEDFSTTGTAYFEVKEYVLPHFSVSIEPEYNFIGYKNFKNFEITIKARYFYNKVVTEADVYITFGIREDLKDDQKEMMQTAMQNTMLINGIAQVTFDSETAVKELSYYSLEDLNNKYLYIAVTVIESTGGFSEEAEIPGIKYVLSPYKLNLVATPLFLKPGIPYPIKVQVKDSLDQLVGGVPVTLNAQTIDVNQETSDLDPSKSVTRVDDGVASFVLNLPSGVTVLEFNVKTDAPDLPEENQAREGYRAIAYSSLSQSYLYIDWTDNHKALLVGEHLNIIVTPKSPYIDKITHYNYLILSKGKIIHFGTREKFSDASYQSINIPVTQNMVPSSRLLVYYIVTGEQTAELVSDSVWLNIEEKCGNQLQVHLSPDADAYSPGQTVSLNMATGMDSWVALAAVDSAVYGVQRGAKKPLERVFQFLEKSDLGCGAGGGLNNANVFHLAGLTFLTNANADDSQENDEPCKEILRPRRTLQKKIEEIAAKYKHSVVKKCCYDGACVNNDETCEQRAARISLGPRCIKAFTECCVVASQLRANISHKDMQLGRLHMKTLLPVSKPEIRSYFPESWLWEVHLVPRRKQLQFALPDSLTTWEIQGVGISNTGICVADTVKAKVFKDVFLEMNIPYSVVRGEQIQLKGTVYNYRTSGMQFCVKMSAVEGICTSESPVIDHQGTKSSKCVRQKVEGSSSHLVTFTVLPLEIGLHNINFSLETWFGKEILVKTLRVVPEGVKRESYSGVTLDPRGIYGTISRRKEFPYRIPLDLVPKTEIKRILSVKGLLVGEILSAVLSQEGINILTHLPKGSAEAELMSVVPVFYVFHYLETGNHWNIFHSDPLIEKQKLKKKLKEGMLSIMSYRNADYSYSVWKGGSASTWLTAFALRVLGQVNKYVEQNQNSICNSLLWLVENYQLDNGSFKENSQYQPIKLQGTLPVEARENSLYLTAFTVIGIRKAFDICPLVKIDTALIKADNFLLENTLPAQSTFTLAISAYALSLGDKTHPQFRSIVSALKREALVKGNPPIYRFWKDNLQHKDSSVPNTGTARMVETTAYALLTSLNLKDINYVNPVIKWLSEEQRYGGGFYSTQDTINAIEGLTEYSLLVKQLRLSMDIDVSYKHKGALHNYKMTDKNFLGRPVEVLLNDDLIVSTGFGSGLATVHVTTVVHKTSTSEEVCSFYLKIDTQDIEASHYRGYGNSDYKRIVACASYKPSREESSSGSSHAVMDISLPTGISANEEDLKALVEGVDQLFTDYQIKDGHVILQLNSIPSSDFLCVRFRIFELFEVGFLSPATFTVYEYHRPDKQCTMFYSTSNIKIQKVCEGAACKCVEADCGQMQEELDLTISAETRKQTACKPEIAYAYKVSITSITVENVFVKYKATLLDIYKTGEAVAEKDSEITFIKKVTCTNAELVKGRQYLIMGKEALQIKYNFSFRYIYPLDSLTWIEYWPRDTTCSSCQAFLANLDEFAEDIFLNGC
# What was measured:
# Test in all cases: cell-based or functional assay
# [1] = target: T1, human complement component C5 (human, UniProt P01031 19-1676, limits assumed)
# [2] = target: T1, human complement component C5; remark: listed apart in the source
# [3] = target: T1, human complement component C5; remark: listed apart in the source
# [4] = target: T1, human complement component C5; remark: listed apart in the source
# [5] = target: T1, human complement component C5; remark: listed apart in the source
# [6] = target: T1, human complement component C5; remark: listed apart in the source
# [7] = target: T1, human complement component C5; remark: listed apart in the source
binder,measurement,setting,value
"Ravulizumab (antibody, human IgG2, kappa, V domains shown) VH: QVQLVQSGAEVKKPGASVKVSCKASGHIFSNYWIQWVRQAPGQGLEWMGEILPGSGHTEYTENFKDRVTMTRDTSTSTVYMELSSLRSEDTAVYYCARYFFGSSPNWYFDVWGQGTLVTVSS VL: DIQMTQSPSSLSASVGDRVTITCGASENIYGALNWYQQKPGKAPKLLIYGATNLADGVPSRFSGSGSGTDFTLTISSLQPEDFATYYCQNVLNTPLTFGQGTKVEIKR","IC50 (read off the curve); AP hemolysis, 25% NHS, 1.5 mM MgCl2",[1],~200 nM
same,"IC50 (read off the curve); CP hemolysis, 10% NHS",[2],~80 nM
same,"IC50 (read off the curve); AP hemolysis, 25% NHS",[3],~200 nM
same,"IC50 (read off the curve); CP hemolysis, 5% NHS",[4],~30 nM
same,"IC50 (read off the curve); AP hemolysis, 25% NHS, 1 mM MgCl2",[5],~200 nM
same,"IC50 (read off the curve); AP hemolysis, 25% NHS, 2 mM MgCl2",[6],~200 nM
same,"IC50 (read off the curve); CP hemolysis, 25% NHS",[7],~100 nM
